Usually IC50 stands for the concentration that gives 50% inhibition. A high value points to weaker potency.

The chains behind the UniProt entries cited, without tags or fusion partners.
UniProt P61169, whole entry: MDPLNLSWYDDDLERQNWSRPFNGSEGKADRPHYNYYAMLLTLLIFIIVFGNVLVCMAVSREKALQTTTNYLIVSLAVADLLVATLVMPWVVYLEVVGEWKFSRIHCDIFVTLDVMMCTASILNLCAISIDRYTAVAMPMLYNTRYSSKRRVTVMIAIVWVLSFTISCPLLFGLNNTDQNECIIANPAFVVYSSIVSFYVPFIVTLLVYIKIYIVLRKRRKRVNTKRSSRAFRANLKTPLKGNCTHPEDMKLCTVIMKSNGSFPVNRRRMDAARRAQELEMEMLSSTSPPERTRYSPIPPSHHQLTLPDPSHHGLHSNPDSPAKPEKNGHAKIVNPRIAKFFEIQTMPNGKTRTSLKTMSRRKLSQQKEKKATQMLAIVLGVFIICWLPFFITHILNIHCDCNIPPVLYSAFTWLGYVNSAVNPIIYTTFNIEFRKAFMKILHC

We go through 3 molecules from ChEMBL document CHEMBL1125885, “Dopamine autoreceptor agonists as potential antipsychotics. 3.6-Propyl-4,5,5a,6,7,8-hexahydrothiazolo[4,5-f]quinolin-2-amine” (J Med Chem, 1991).

The target of the experiment is D(2) dopamine receptor (Rattus norvegicus, UniProt P61169). In words: Binding affinity towards dopamine receptor D2 in rat striatal membrane using [3H]spiperone. It counts as cell membranes, Striatum.
Turning to `CCCN1CCC=C2c3nc(N)sc3CC[C@@H]21` (stereo in doubt; (+)-6), the IC50 was 860 nM. In other words, the sub-micromolar range. The value for `CCCN1CCC=C2c3nc(N)sc3CC[C@@H]21` (stereo in doubt; (-)-6) was 2240 nM; that for `CCCN1CCC=C2c3nc(N)sc3CCC21` (racemic) was 2200 nM.
